Data taken from ChEMBL document CHEMBL1142276, “Synthesis, cannabinoid receptor affinity, and molecular modeling studies of substituted 1-aryl-5-(1H-pyrrol-1-yl)-1H-pyrazole-3-carboxamides” (J Med Chem, 2008).

Amino acid sequences for entries named in this document (tags omitted).
UniProt P21554, whole entry: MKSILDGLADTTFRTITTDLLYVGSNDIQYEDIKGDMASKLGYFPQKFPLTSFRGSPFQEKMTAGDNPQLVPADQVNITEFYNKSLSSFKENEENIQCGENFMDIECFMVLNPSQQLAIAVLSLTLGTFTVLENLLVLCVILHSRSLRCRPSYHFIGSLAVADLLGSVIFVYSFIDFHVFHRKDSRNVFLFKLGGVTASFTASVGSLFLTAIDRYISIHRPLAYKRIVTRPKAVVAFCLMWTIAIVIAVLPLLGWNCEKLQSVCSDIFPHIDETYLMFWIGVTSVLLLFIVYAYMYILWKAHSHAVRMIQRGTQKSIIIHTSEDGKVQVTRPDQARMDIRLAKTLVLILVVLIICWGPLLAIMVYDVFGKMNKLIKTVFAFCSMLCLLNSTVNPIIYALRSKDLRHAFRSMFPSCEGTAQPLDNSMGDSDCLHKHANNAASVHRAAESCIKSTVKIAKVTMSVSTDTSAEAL

Biological target: Cannabinoid receptor 1 (Homo sapiens, UniProt P21554)
Experiment: biochemical
Assay type: cell-based, HEK293

Compound: Cc1ccc(Cn2nc(C(=O)N[C@@H]3C(C)(C)[C@@H]4CC[C@@]3(C)C4)cc2-c2ccc(Cl)c(C)c2)cc1 [SR-144528]
- Ki: > 2.82 µM
